Drawing on PubChem BioAssay AID624037 (The Scripps Research Institute Molecular Screening Center, 2012), this text covers activation for 23 compounds.

By UniProt entry, the sequences of proteins in these tests, tags left out.
UniProt P08912, whole entry: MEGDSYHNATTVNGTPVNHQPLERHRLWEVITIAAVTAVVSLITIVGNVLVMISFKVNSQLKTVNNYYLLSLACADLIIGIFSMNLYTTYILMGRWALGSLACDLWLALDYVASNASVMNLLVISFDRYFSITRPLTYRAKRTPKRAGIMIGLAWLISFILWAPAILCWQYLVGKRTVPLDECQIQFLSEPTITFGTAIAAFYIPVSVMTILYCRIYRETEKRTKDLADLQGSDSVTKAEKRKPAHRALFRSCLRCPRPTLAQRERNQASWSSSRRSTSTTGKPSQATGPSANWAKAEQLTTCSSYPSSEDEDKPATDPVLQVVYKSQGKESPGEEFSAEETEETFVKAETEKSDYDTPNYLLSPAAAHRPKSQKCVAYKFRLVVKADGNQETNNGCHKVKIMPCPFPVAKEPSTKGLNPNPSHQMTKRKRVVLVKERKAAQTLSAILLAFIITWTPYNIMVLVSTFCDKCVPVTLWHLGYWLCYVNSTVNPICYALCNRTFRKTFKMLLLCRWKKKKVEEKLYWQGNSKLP

The entries are a selection whose mix differs from that of the whole data set. Some of these compounds have results that are not shown, active ones among them. Active and inactive are the calls of the source.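 How the source made its calls: active means activation above the run's mean over test compounds plus 3 SD (cut at about 23% in these data); inactive means the rest.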

The experiment concerns the target Muscarinic acetylcholine receptor M5 (Homo sapiens) (UniProt P08912). The experiment is described as follows: human M5 muscarinic receptor agonists, primary screen, CHO-K1 cells, Fluo-8 calcium fluorescence (AID 624037).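 Further: signal is peak over basal fluorescence ratio across the kinetic read.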 Conditions: CHO-K1 hM5 cells, at 3 µM, active compounds read high, 0% DMSO wells, 100% maximal acetylcholine response.
On to `O=C(OC1CN2CCC1CC2)C(CO)(c1ccccc1)c1ccccc1` (stereo not drawn), for which the activation was inactive: -9.12%.

With `CN(C)c1cccc(C(=O)NCC2(N(C)C)CCCCC2)c1`, the activation was inactive: -5.6%.

`O=C(OCCN1CCCC1)C(O)(c1ccccc1)c1ccccc1`: the activation is inactive: -12.4%.

On to `CC(C)Oc1ccc(C(=O)NCC2(N(C)C)CCCCC2)cc1`, for which the activation was inactive: -3.11%.

Consider `COc1ccc(Br)c(C(=O)NCC2(N3CCCCC3)CCCCC2)c1`, for which the activation is inactive: -1.82%.

Turning to `C=C(C)C#CC(O)(C(=O)OC1CCN(C)CC1)c1ccccc1` (stereo not drawn), the activation is inactive: -11.5%.

Consider `COc1cc(C(=O)NCC2(N(C)C)CCCCC2)c([N+](=O)[O-])cc1OC`, for which the activation is inactive: -3.42%.

In the case of `CN(C)C1(CNC(=O)c2ccc(Br)cc2)CCCCC1`, the activation was inactive: -1.92%.

As to `O=C(NCC1(N2CCCCC2)CCCCC1)c1cccc(Cl)c1`, the activation is inactive: -3.92%.

On to `COc1ccc(Cl)cc1C(=O)NCC1(N(C)C)CCCCC1`, for which the activation was inactive: -3.67%.

On to `COc1cccc(C(=O)NCC2(N3CCCCC3)CCCCC2)c1`, for which the activation is inactive: 3.34%.

With `CN(C)c1ccc(C(=O)NCC2(N(C)C)CCCCC2)cc1`, the activation was inactive: -1.38%.

Take `Cc1ccccc1C(=O)NCC1(N2CCCCC2)CCCCC1`: the activation is inactive: -3.2%.

As for `O=C(NCC1(N2CCCCC2)CCCCC1)c1cccc(Br)c1`, the activation was inactive: -3.97%.

Consider `Cc1cc(C(=O)NCC2(N3CCCCC3)CCCCC2)ccc1[N+](=O)[O-]`, for which the activation is inactive: -3.43%.

`COc1ccc(C(=O)NCC2(N(C)C)CCCCC2)cc1`: the activation was inactive: -1.87%.

With `O=C(NCC1(N2CCCCC2)CCCCC1)c1cc(F)c(F)cc1Cl`, the activation is inactive: -3.6%.

Turning to `C=CCN1CCN(CCOC(=O)C(O)(c2ccccc2)c2ccccc2)CC1`, the activation is inactive: -10.6%.

Take `O=C(NCC1(N2CCCCC2)CCCCC1)c1cc([N+](=O)[O-])ccc1Cl`: the activation is inactive: -5.18%.

With `Cc1ccc(C(=O)NCC2(N3CCCCC3)CCCCC2)cc1`, the activation was inactive: -4.2%.

With `CC(C)N1C(=O)CC2(CCN(CCOC(=O)C(O)(c3ccccc3)c3ccccc3)CC2)C1=O`, the activation was inactive: -4.21%.

`COc1cc(SC)ccc1C(=O)NCC1(N(C)C)CCCCC1`: the activation is inactive: -3.97%.

Consider `CCN(CC)CC(C)C(C)OC(=O)C(O)(c1ccccc1)c1ccccc1` (stereo not drawn), for which the activation is inactive: -16%.
